# Laboratory results from patent US6500430B1, “Product and process to regulate actin polymerization in T lymphocytes” (National Jewish Medical and Research Center, priority 1995, dated 2002).
# Tested on: TCR-ζ
# Assay: Cell-free association of TCR-ζ with the actin cytoskeleton (detergent soluble lysate, newly polymerized pellet)
# Type: biochemical, murine
# Settings: 1 mM ATP and above
# Experimental: Freshly isolated murine thymocytes or lymph node T cells, or CD25/ζ-expressing T cell hybridomas, were washed 3 times in BSS and incubated in the presence or absence of cytochalasin D for 1.5 hrs at 4° C., solubilized with 0.5% NP-40 in a Tris buffered saline solution (TBS; 150 mM NaCl, 10 mM Tris, pH 7.3) containing protease and phosphatase inhibitors (0.2 mM VO3, 10 mM NaF, 1 mM PMSF, and 1 mg/ml each of Aprotinin, Leupeptin, and α-l-antitrypsin) and centrifuged at 10,000 rpm for 10 min to pellet the insoluble material. […] To increase actin polymerization, the Mg^2+ concentration was increased to 2 mM. […] Immunoprecipitation of the detergent soluble fraction with anti-TCR-ζ antibody was then performed as described in Example 4. The pellet and the anti-TCR-ζ immunoprecipitate were resolved by SDS-PAGE gel electrophoresis and immunoblotted with anti-TCR-ζ antibody.
compound,measurement,value
Nc1ncnc2c1ncn2[C@@H]1O[C@H](COP(=O)(O)OP(=O)(O)OP(=O)(O)O)[C@@H](O)[C@H]1O [ATP],Association of TCR-ζ with the lysis pellet,optimal
